Laboratory results taken from patent publication US11648295B2, “Methods of treating diseases resulting from a maladapted stress response” (Cortene Inc., priority 2016, dated 2023).
Where two headings read alike, the source gives them in different places.

Assays:
CRFR2 = molecular target: T1, CRFR2 (Homo sapiens, UniProt Q13324); assay: in vitro potency / binding potential for CRFR2 (table of FIG. 10); format: biochemical
T1 sequence (Q13324 1-411): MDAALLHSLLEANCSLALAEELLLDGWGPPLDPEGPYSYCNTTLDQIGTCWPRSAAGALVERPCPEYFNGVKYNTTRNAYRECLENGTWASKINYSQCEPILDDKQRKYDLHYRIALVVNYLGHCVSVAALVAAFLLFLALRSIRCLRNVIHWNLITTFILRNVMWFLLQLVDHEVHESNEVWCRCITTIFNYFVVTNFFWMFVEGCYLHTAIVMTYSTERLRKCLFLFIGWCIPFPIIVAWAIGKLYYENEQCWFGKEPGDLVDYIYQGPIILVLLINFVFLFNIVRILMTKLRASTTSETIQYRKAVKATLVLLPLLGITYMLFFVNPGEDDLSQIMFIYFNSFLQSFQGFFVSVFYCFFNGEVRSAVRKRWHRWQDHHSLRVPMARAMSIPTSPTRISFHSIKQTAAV

CRFR1 [1] = molecular target: CRFR1 (Homo sapiens, UniProt P34998); assay: EC50, nmol (% of Emax) | CRFR1
Description: (§1) Table printed on a drawing sheet, FIGURE 10
(§2) Title: Pharmacokinetic Parameters
Head of the field: EC50, nmol (% of Emax) | CRFR1
(§3) Footnotes: FIGURE 10: Effect of maximum or steady state plasma concentrations (Cmax or Css) of various CRFR2 agonists (CT38, SCP or Ucn2), dosed by subcutaneous bolus (triangles) or intravenous infusion (circles), on the maximum heart rate (HRmax) in healthy subjects (solid lines) or stable congestive heart failure patients (dashed lines). The table provides comparative pharmacokinetic parameters for the CRFR2 agonists.
(§4) That is, for strongly potent CRFR2 agonists and relative intermediate plasma concentrations, the loss of the ability to induce a heart rate increase via continuous dosing, was driven by the duration of dosing, and appeared to occur with different selective CRFR2 agonists (e.g., Ucn2, stresscopin), irrespective of the condition of the human subject.
First copying reader's note: Each EC50 cell holds the EC50 in nmol with the % of Emax in brackets after it.
Where the first naming reader finds the target: head: EC50, nmol (% of Emax) | CRFR1

[2] = continuous (infusion) s.c. dosing, rats
[3] = test system: female Sprague Dawley rats; assay: Example 8: escalating continuous s.c. infusion, telemetry of heart rate and blood pressure; format: in vivo, rat
Description: The heart rate data of FIG. 8A further emphasized that sustained stimulation of CRFR2 (via continuous infusion) reduced the ability of a CRFR2 agonist to induce a heart rate increase, but in a progressive, time-dependent manner.

[4] = Pharmacokinetic Parameters
Description: as §1, §2, §3, §4
First reader's note: Each EC50 cell holds the EC50 in nmol with the % of Emax in brackets after it.

CRFR1 [5] = molecular target: T2, CRFR1 (Homo sapiens, UniProt P34998); assay: in vitro binding potential for CRFR1 (table of FIG. 10); format: biochemical
T2 sequence (P34998 24-415): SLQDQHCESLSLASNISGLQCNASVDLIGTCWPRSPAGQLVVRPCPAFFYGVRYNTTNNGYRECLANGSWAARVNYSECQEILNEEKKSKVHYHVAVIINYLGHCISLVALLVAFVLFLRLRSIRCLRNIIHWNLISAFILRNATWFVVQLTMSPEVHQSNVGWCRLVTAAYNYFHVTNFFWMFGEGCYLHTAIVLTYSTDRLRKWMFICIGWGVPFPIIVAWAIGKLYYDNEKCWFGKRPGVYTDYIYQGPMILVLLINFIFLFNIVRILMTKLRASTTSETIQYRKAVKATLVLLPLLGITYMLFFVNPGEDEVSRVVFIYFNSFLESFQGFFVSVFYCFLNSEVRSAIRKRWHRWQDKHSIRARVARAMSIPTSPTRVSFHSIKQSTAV

healthy human subjects = assay: Example 9: Phase 1 single ascending dose trial, s.c. bolus; format: in vivo; conditions: instantaneous (bolus) plasma concentration, healthy humans, FIG. 10
Description: (§5) In a Phase 1 human single ascending dose clinical trial (2005051), CT38s was dosed by subcutaneous injection (bolus) in cohorts of human subjects (each cohort receiving the same dose; rising dose across cohorts). The purpose of this trial was to determine the maximum tolerated bolus dose of CT38s in healthy human subjects.

[6] = as above; format: in vivo, human; conditions: male, plasma, sc, healthy human subjects
Description: as §5

in vivo = conditions: both, Sprague Dawley, rat, plasma, sc
male Sprague Dawley rats = assay: Example 5: stress hormones in venous blood after s.c. bolus; format: in vivo, rat; conditions: normal rats

Structure (SMILES): CC[C@H](C)[C@H](NC(=O)[C@@H](NC(=O)[C@H](CC(=O)O)NC(=O)[C@H](CC(C)C)NC(=O)[C@H](CC(C)C)NC(=O)[C@H](CCCNC(=N)N)NC(=O)[C@H](C)NC(=O)[C@H](CC(N)=O)NC(=O)[C@H](CC(N)=O)NC(=O)[C@H](C)NC(=O)[C@H](C)NC(=O)[C@H](CCC(N)=O)NC(=O)[C@H](CCC(N)=O)NC(=O)[C@H](CCCCN)NC(=O)[C@H](CCC(=O)O)NC(=O)[C@H](CCCCN)NC(=O)[C@H](CCC(=O)O)NC(=O)[C@H](CCC(N)=O)NC(=O)[C@H](CCCCN)NC(=O)[C@H](CCC(=O)O)NC(=O)[C@@H](NC(=O)[C@H](CCC(=O)O)NC(=O)[C@@H](NC(=O)[C@@H](NC(=O)[C@H](CCCCN)NC(=O)[C@H](CCCNC(=N)N)NC(=O)[C@H](CC(C)C)NC(=O)[C@H](CC(C)C)NC(=O)[C@H](CCC(N)=O)NC(=O)[C@H](Cc1ccccc1)NC(=O)[C@@H]1CCCN1C(=O)[C@H](CC(C)C)NC(=O)[C@H](CC(=O)O)NC(=O)[C@@H](NC(=O)[C@H](CO)NC(=O)[C@@H](NC(=O)[C@@H]1CCCN1C(=O)[C@@H]1CCCN1C(=O)CNC(=O)[C@@H]1CCC(=O)N1)[C@@H](C)CC)[C@@H](C)CC)C(C)C)[C@@H](C)CC)[C@@H](C)CC)[C@@H](C)O)C(N)=O [CT38]
- potency and pharmacokinetic parameters relative to endogenous Ucn2 (CRFR2): approximately equivalent
- in vitro binding potential for CRFR2 (CRFR2; table of FIG. 10): maximal, at low concentrations
- EC50, nmol (% of Emax) | CRFR1 (CRFR1 [1]): > 1000 (53) nmol (% of Emax)
- time to reach steady state plasma concentration [2]: ~5.2 h
- tachycardia during infusion ([3]; 30 µg/kg/day, within 4 hours): absence of any observed tachycardia
- receptor resensitization ([3]; 15-day period of sustained stimulation): no evidence to suggest receptor resensitization
- heart rate on escalation to the next dose level ([3]; after 72 hours sustained stimulation per dose level, 30 to 10,000 µg/kg/day s.c. infusion): unable to increase the heart rate to prior levels
- blood pressure or vasodilatory effect under sustained stimulation ([3]; escalating continuous s.c. infusion): not accompanied by a corresponding diminishment of blood pressure or vasodilatory effect
- t1/2 (hours) | 30-min IV infusion [4]: 0.7 h
- t1/2 (hours) | subQ bolus [4]: 0.9 h
- in vitro binding potential for CRFR1 (CRFR1 [5]): minimal, at high concentrations
- effect of plasma concentration on heart rate (healthy human subjects): induced an increasing effect on the heart rate
- Cmax ([6]; 0.2 ug/kg, s.c. bolus 0.200 µg/kg): 0.32 ng/mL
- Cmax ([6]; 0.833 ug/kg, s.c. bolus 0.833 µg/kg, read-out: lowest maximum plasma concentration (Cmax) to cause tachycardia (100 beats/minute)): 1.56 ng/mL
- Cmax ([6]; 1.667 ug/kg, s.c. bolus 1.667 µg/kg): 2.46 ng/mL
- Tmax (in vivo): ~36 min
- effect on corticosterone (male Sprague Dawley rats; at 2 hours post-dose): significant increases
- effect on norepinephrine (male Sprague Dawley rats; at 2 hours post-dose): significant increases
- changes in aldosterone (male Sprague Dawley rats): not significant
- changes in epinephrine (male Sprague Dawley rats): not significant
- norepinephrine and corticosterone returning to control values (male Sprague Dawley rats): 4 hours post-dose
